By UniProt entry, the sequences of proteins in these tests, tags left out. Where a name states a change or a piece, a line headed by the entry shows the natural chain unless it says otherwise.
UniProt P32245, whole entry: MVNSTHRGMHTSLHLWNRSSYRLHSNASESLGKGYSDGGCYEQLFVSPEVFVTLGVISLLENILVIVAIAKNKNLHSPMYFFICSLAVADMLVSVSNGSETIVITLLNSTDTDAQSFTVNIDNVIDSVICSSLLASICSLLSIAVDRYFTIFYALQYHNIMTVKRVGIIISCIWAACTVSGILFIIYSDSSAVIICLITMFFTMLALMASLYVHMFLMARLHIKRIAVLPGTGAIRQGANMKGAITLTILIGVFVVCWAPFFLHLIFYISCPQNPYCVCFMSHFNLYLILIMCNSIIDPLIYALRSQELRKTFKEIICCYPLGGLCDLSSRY
UniProt P33032: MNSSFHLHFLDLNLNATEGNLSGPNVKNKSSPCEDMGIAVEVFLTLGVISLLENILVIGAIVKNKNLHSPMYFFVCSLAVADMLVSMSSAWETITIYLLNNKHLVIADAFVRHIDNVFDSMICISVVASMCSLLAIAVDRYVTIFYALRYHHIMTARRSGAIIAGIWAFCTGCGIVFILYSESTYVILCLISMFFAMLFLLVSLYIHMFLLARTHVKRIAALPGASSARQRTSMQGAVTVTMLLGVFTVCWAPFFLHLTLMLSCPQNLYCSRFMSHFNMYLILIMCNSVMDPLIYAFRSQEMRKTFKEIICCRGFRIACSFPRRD
UniProt Q01726: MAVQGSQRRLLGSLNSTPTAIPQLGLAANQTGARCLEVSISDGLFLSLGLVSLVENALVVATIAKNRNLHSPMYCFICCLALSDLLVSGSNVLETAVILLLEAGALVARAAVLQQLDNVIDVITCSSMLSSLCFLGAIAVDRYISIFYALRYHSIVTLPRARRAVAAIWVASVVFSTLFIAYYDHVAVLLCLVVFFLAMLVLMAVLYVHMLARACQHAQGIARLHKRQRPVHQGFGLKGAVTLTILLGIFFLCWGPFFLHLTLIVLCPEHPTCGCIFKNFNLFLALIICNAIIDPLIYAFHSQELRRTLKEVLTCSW
UniProt P41968: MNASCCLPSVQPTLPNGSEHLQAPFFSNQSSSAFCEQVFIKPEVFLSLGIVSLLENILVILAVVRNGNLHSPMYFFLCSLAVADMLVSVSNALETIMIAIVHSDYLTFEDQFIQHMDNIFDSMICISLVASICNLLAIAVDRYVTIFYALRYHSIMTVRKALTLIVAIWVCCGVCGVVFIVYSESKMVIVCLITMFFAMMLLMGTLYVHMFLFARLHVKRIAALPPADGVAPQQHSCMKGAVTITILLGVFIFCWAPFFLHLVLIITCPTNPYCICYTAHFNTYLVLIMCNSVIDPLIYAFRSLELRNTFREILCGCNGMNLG

In patent US20210163536A1 (IPSEN PHARMA S A S, published 2021):

B1: Hydantoin(C(O)-(Aib-Nle))-cyclo(Cys-D-Ala-His-D-Phe-Arg-Trp-Cys)-NH2 (peptide)
peptide: CXHXRWC
modifications: hydantoin ring from Aib 1, C(O) and the amino group of Nle 2; Aib 1; Nle 2; D-Ala 4; D-Phe 6; disulfide Cys 3-Cys 9 (cyclo); C-terminal amide
B2: cyclo[Hydantoin(C(O)-(Leu-Cys))-D-Ala-His-D-Phe-Arg-Trp-Cys]-NH2 (peptide)
peptide: XHXRWC
modifications: not fully specified; hydantoin ring from Leu 1, C(O) and the amino group of Cys 2; D-Ala 3; D-Phe 5; disulfide Cys 2-Cys 8 (cyclo); C-terminal amide
B3: Hydantoin(C(O)-(A6c-Nle))-cyclo(Cys-D-Ala-His-D-Phe-Arg-Trp-Cys)-NH2 (peptide)
peptide: CXHXRWC
modifications: hydantoin ring from A6c 1, C(O) and the amino group of Nle 2; A6c 1; Nle 2; D-Ala 4; D-Phe 6; disulfide Cys 3-Cys 9 (cyclo); C-terminal amide
B4: Hydantoin(C(O)-(Aib-Gly))-cyclo(Cys-D-Ala-His-D-Phe-Arg-Trp-Cys)-NH2 (peptide)
peptide: CXHXRWC
modifications: hydantoin ring from Aib 1, C(O) and the amino group of Gly 2; Aib 1; D-Ala 4; D-Phe 6; disulfide Cys 3-Cys 9 (cyclo); C-terminal amide
B5: Hydantoin(C(O)-(Cha-Nle))-cyclo(Cys-D-Ala-His-D-Phe-Arg-Trp-Cys)-NH2 (peptide)
peptide: CXHXRWC
modifications: hydantoin ring from Cha 1, C(O) and the amino group of Nle 2; Cha 1; Nle 2; D-Ala 4; D-Phe 6; disulfide Cys 3-Cys 9 (cyclo); C-terminal amide
B6: Hydantoin(C(O)-(Val-Nle))-cyclo(Cys-D-Ala-His-D-Phe-Arg-Trp-Cys)-NH2 (peptide)
peptide: CXHXRWC
modifications: not fully specified; hydantoin ring from Val 1, C(O) and the amino group of Nle 2; Nle 2; D-Ala 4; D-Phe 6; disulfide Cys 3-Cys 9 (cyclo); C-terminal amide

These binders were tested against T1, human melanocortin-4 receptor (human, UniProt P32245 1-332) (assay: competition with [125I]-NDP-alpha-MSH, CHO-K1 cell membranes).
T1 construct: whole, on cells; Ki assays used cellular membranes of the CHO-K1 cells; cAMP assays used the whole cells; also called hMC4; hMC-R receptor subtype 4
Description: (§1) Competitive inhibition of [¹²⁵I](Tyr²)-(Nle⁴-D-Phe⁷)α-MSH ([¹²⁵I]-NDP-α-MSH, Amersham Biosciences®) binding was carried out in polypropylene 96 well plates. […] Bound [¹²⁵I]-NDP-α-MSH ligand was separated from free [¹²⁵I]-NDP-α-MSH by filtration through GF/C glass fiber filter plates (Unifilter®; Packard) presoaked with 0.1% (w/v) polyethylenimine (PEI), using a Packard Filtermate® harvester. Filters were washed three times with 50 mM Tris-HCl at pH 7.4 at a temperature of approximately 0-4° C. and then assayed for radioactivity using a Packard Topcount® scintillation counter. Binding data were analyzed by computer-assisted non-linear regression analysis (XL fit; IDBS).
With B1 the Ki was 8.4 nM. Binder B2 has a Ki of 27.9 nM. Work on B3 yielded a Ki of 19.6 nM. Work on B4 yielded a Ki of 13.7 nM. B5 was tested, and the Ki was 137 nM.

What follows are binders tested against T2, human melanocortin-5 receptor (human, UniProt P33032 1-325) in the same assay as above.
T2 construct: whole, on cells; Ki assays used cellular membranes of the CHO-K1 cells; cAMP assays used the whole cells; also called hMC5; hMC-R receptor subtype 5
Description: as §1
Binder B1 has a Ki of 2120 nM. Binder B3 has a Ki of 2500 nM. B4 showed a Ki of 133 nM. In the case of B5, the Ki is reported as 3560 nM.

The binders below were run against T3, human melanocortin-1 receptor (human, UniProt Q01726 1-317) in the same assay as above.
T3 construct: whole, on cells; Ki assays used cellular membranes of the CHO-K1 cells; cAMP assays used the whole cells; also called hMC1; hMC-R receptor subtype 1
Description: as §1
Work on B1 yielded a Ki of 17.7 nM. For B2, the Ki was 47.4 nM. In the case of B3, the Ki is reported as 31.6 nM. B4 was tested, and the Ki was 36.8 nM. Work on B5 yielded a Ki of 40.8 nM. B6 was tested, and the Ki was 33.7 nM.

The binders below were run against T4, human melanocortin-3 receptor (human, UniProt P41968 1-323) in the same assay as above.
T4 construct: whole, on cells; Ki assays used cellular membranes of the CHO-K1 cells; cAMP assays used the whole cells; also called hMC3; hMC-R receptor subtype 3
Description: as §1
In the case of B1, the Ki is reported as 73.6 nM. Binder B2 has a Ki of 1550 nM. Work on B3 yielded a Ki of 224 nM. With B4 the Ki was 290 nM. For B5, the Ki was 870 nM.
